Molecular target: 6×HIS-tankyrase 1 (1091-1325) (Homo sapiens (Human), UniProt O95271)
Type: biochemical
Conditions: […] enzyme, 400 nM NAD, 60 minutes at room temperature; read-out: TNKS1 IP IC50

The chains behind the UniProt entries cited, without tags or fusion partners. Residues count along the entry.
UniProt O95271, 1091-1325: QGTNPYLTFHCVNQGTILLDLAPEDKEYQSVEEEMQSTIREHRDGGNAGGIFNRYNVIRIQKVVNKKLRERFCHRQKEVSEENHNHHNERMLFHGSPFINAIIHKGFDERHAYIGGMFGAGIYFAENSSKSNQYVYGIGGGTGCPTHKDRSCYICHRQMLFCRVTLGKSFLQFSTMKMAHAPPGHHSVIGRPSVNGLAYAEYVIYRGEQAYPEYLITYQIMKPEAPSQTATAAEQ

`CC1(C)OC(=O)N([C@H]2CC[C@H](n3c(=O)[nH]c4cc(Cl)ccc43)CC2)[C@H]1c1ccccc1` [Example 29, (S)-3-((1r,4S)-4-(5-chloro-2-oxo-2,3-dihydro-1H-benzo[d]imidazol-1-yl)cyclohexyl)-5,5-dimethyl-4-phenyloxazolidin-2-one] gave an IC50 of 5.33 nM.
